Target: rat serum albumin (rat) (UniProt P02770)
Experiment: Biacore SPR

The chains behind the UniProt entries cited, without tags or fusion partners. Residues count along the entry.
UniProt P02770, 25-608 limits assumed: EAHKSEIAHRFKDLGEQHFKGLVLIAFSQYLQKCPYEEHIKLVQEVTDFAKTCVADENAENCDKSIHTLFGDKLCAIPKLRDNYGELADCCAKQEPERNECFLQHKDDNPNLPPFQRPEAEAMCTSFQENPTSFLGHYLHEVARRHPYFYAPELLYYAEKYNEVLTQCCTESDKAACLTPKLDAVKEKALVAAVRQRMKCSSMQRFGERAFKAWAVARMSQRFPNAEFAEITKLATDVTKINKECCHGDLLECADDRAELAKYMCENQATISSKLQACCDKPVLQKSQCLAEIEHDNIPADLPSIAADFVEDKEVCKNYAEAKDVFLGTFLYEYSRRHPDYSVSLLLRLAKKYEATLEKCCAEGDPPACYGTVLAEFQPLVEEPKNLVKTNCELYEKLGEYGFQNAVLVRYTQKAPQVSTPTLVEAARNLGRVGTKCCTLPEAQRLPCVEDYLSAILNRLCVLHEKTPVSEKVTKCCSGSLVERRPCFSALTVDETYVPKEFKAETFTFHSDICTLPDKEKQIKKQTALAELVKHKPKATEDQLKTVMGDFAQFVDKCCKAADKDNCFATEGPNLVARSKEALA

- Kd: 17 µM
Substance: semaglutide (peptide)
